Results on 1 compound are retold here after patent US7829562B2, “Sigma ligands for neuronal regeneration and functional recovery” (M's Science Corporation, priority 2003, dated 2010).

For assay [1], the system named is DA rats immunized with Rat Spinal Cord Homogenate (EAE). In words: Experimental autoimmune encephalomyelitis (EAE) model of MS: clinical signs, weight, euthanasia. In kind it is in vivo. The note with it: for Max. score / Min. score sick rats: EAE score 0-6; for Day onset: days after immunization.
The test system is the same in assay [2]. To be noted: in vivo.
Setting [3] is: 0.3 mg/kg, day 47 post-immunization.

In the case of `COc1ccc(CCN2CCN(CCCc3ccccc3)CC2)cc1OC` [AGY-94806, 1-(3,4-dimethoxyphenethyl)-4-(3-phenylpropyl) piperazine], the weight recovery result in assay [1] (0.3 mg AGY-94806 group) is “significantly (P<0.05) more rapid weight recovery”. Besides, in assay [1] (0.3 mg/Kg sc group), the “n Rats killed” value was found to be 12, the “n Rats with EAE” value is 23/23, the Max. score is 5 (n = 2) and the “Min. score sick rats” value is listed as 3 (n = 1). Also, in assay [1] (0.3 mg/Kg sc group), the Day onset was 6-11. Also, the “animals that gained their motor function back at day 47” value in assay [1] (0.3 mg/kg) was 50%. For the same compound, the “recovery of neurological score” value in assay [1] (0.3 mg/kg, 6 days after cessation of treatment, compared to vehicle and 1 mg/kg, significant 28 days after treatment) is “enhanced recovery of neurological score”. Also, in assay [1] (0.3 mg/kg, day 47), the “number of animals with a score of 1.5” value is 1, the “number of animals with a score of 2” value worked out at 2 and the “number of animals with neuroscores of 1 or less” value was “Five”. Besides, in assay [1] (setting [3]), the “rats very significantly recovered from EAE (number)” value was 8 out of the 11 and the “rats very significantly recovered from EAE (percent)” value is given as 72%. In assay [1] (1 mg AGY-94806 group), the “weight versus vehicle-treated group” value is listed as “no statistically significant differences in weight”. In assay [1] (1.0 mg/Kg sc group), the “n Rats killed” value is given as 12, the “n Rats with EAE” value is 22/22, the Max. score is given as 5 (n = 2) and the “Min. score sick rats” value was 3 (n = 1). Further, the Day onset in assay [1] (1.0 mg/Kg sc group) is 5-10. Also, the “animals that gained their motor function back at day 47” value in assay [1] (1 mg/kg) was “none”. In assay [1] (1 mg/kg sc, daily for 10 days), the neurological deficit result is “substantial neurological deficit”. Moreover, in assay [2], the “axonal damage and loss in the spinal cord” value was “Significant axonal damage and loss”; the “demyelination and axonal loss in the spinal cord” value was “statistically significant reduction of demyelination and axonal loss”.
